Reference: patent US20240108766A1 (Bayer, published 2024)

Columns and labels:
[1] = molecular target: T1, human LRRC15 extracellular domain with C-terminal His tag (human, UniProt Q8TF66 22-538); test: calculated from SPR kd, 37°C
T1 construct: Recombinant, made in HEK293; the entry holds the extracellular domain and the His tag; SPR analyte; also called TPP-1545; hLRRC15 CT-His
T1 sequence: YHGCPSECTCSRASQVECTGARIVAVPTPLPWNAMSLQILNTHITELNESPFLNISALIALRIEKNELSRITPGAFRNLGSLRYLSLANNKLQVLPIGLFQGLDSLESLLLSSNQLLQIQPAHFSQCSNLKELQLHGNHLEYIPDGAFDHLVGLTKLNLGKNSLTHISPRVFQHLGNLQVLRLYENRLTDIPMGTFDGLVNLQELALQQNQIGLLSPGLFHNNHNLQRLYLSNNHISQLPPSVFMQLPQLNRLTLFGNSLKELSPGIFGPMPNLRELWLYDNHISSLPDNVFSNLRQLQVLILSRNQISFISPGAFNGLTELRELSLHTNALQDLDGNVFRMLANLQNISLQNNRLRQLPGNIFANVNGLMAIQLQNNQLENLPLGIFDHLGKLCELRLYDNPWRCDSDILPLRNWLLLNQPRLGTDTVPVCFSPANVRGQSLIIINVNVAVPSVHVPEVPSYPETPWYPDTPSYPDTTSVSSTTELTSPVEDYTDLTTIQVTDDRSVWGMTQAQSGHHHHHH
Description: (§1) To assess if anti-LRRC-15 antibodies show a difference in binding at different temperatures, binding assays were conducted using surface plasmon resonance (SPR). Binding assays were performed on a Biacore T200 instrument at temperatures of 10° C., 20° C., 25° C. and 37° C. with assay buffer HBS EP+, 1 mg/ml BSA (bovine serum albumine), 300 mM NaCl, 0.05% NaN₃. Antibodies were captured via anti-human Fc IgGs covalently amine coupled to a CM5 sensor chip and human LRRC15 was used as an analyte in a concentration series from 1.56-200 nM in multi cycle kinetics mode. Pre-experiments were conducted to have an equal capture level at each temperature. Obtained sensorgrams were fitted to a 1:1 Langmuir binding model to derive kinetic data.

[2] = molecular target: T1, human LRRC15 extracellular domain with …; test: SPR Biacore T200, antibody captured, LRRC15 analyte, 20°C
Description: as §1

[3] = molecular target: T1, human LRRC15 extracellular domain with …; test: SPR Biacore T200, antibody captured, LRRC15 analyte, 25°C
Description: as §1

[4] = molecular target: T1, human LRRC15 extracellular domain with …; test: SPR (Example 3), 25°C; kd as listed in Table 6
Description: as §1

[5] = molecular target: T1, human LRRC15 extracellular domain with …; test: SPR (Example 3), 20°C; kd as listed in Table 6
Description: as §1

[6] = molecular target: T1, human LRRC15 extracellular domain with …; test: SPR Biacore T200, 25°C, antibody captured, LRRC15 analyte
Description: (§2) To assess the binding kinetics and affinity of anti-LRRC15 antibodies as well as their species cross-reactivity profile, binding assays were conducted using surface plasmon resonance (SPR). Binding assays were performed on a Biacore T200 instrument at 25° C. using assay buffer HBS EP+, 1 mg/ml BSA, 300 mM NaCl, 0.05% NaN3. Antibodies were captured via anti-human Fc IgGs covalently amine coupled to a CM5 sensor chip and human, mouse and cynomolgus LRRC15 were used as analytes in a concentration series from 1.56-200 nM in multi cycle kinetics mode. To obtain reliable dissociation rate constants (kd) the dissociation rate was prolonged from 2.000 seconds to 12.000 seconds for two concentrations of antigen injection (25 nM and 200 nM). Obtained sensorgrams were fitted to a 1:1 Langmuir binding model to derive kinetic data.

[7] = molecular target: T2, murine LRRC15 extracellular domain with C-terminal His tag (mouse, UniProt Q80X72 22-536); test: as above
T2 construct: Recombinant, made in HEK293; the entry holds the extracellular domain and the His tag; SPR analyte; also called TPP-9045
Description: as §2

[8] = molecular target: T3, cynomolgus (Macaca fascicularis) LRRC15 extracellular domain with C-terminal His tag (cynomolgus monkey (Macaca fascicularis), UniProt Q8TF66 22-538 (human entry)); test: as above
T3 construct: Recombinant, made in HEK293; the entry holds the extracellular domain and the His tag; SPR analyte; also called TPP-9046
T3 chain: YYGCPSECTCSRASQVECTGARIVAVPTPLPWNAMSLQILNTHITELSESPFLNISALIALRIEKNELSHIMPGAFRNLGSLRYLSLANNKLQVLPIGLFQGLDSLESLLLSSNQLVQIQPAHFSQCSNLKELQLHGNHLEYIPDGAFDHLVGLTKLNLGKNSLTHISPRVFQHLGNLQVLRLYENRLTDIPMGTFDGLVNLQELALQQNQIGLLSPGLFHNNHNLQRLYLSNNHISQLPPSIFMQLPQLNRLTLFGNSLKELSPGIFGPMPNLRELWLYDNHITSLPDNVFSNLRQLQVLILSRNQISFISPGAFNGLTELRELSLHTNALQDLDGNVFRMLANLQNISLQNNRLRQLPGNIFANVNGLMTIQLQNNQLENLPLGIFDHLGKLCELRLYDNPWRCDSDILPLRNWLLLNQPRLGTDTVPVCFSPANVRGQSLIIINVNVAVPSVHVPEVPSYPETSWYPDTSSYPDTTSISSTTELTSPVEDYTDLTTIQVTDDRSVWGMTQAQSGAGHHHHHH
Description: as §2

[9] = molecular target: T1, human LRRC15 extracellular domain with …; test: SPR Biacore T200, antibody captured, LRRC15 analyte, 10°C
Description: as §1

[10] = molecular target: T1, human LRRC15 extracellular domain with …; test: SPR (Example 3), 37°C; kd as listed in Table 6
Description: as §1

[11] = molecular target: T1, human LRRC15 extracellular domain with …; test: SPR Biacore T200, antibody captured, LRRC15 analyte, 37°C
Description: as §1

[12] = molecular target: T1, human LRRC15 extracellular domain with …; test: SPR (Example 3), 10°C; kd as listed in Table 6
Description: as §1

[13] = molecular target: T2, murine LRRC15 extracellular domain with …; test: SPR (Example 6), overview table, repeats Table 9; head prints [M^-1]
Description: as §2

[14] = molecular target: T3, cynomolgus (Macaca fascicularis) LRRC15 …; test: as above
Description: as §2

[15] = molecular target: T1, human LRRC15 extracellular domain with …; test: SPR (Example 3), 10°C; kd as listed in Table 6; 10° C.
Description: as §1

[16] = molecular target: T2, murine LRRC15 extracellular domain with …; test: binding of the purified IgG, method not given
[17] = molecular target: T1, human LRRC15 extracellular domain with …; test: calculated from SPR kd, 20°C
Description: as §1

[18] = molecular target: T1, human LRRC15 extracellular domain with …; test: calculated from SPR kd, 25°C
Description: as §1

- Complex Half Life [1]: 7.7 min
- koff [2]: 6.1e-05 s⁻¹
- kon [2]: 450000 M⁻¹ s⁻¹
- koff [3]: 0.00012 s⁻¹
- kon [3]: 550000 M⁻¹ s⁻¹
- koff [4]: 0.00012 s⁻¹
- koff [5]: 6.1e-05 s⁻¹
- koff [6]: 6.8e-05 s⁻¹
- kon [6]: 370000 M⁻¹ s⁻¹
- Kd [7]: 2.1 nM
- koff [7]: 0.00016 s⁻¹
- kon [7]: 77000 M⁻¹ s⁻¹
- Kd [8]: 0.16 nM
- koff [8]: 8.4e-05 s⁻¹
- kon [8]: 530000 M⁻¹ s⁻¹
- koff [9]: 1.8e-05 s⁻¹
- kon [9]: 320000 M⁻¹ s⁻¹
- koff [10]: 0.0015 s⁻¹
- koff [11]: 0.0015 s⁻¹
- kon [11]: 790000 M⁻¹ s⁻¹
- koff [12]: 1.8e-05 s⁻¹
- Kd [13]: 2.1 nM
- Kd [14]: 0.16 nM
B1: TPP-17074 (antibody, human IgG1, kappa, V domains shown)
VH: EVQLLESGGGLVQPGGSLRLSCAASGFTFSGYMMSWVRQAPGKGLEWVSGIYPSGGYALYADSVKGRFTISRDNSKNTLYLQMNSLRAEDTAVYYCAREKAADLFGSYSEALDYWGQGTLVTVSS
VL: DIQMTQSPDSLSASVGDRVTITCRASQDVGSWLAWYQQKPGKAPKLLIFAASYLESGIPSRFSGSGSGTDFTLTISSLQPEDFATYYCQQANGFPLTFGGGTKVEIKR
notes: Variant of TPP-1633, human IgG1; also called 438H-M161-K22-hIgG1

- koff [2]: 0.0093 s⁻¹
- kon [2]: 120000 M⁻¹ s⁻¹
- koff [3]: 0.022 s⁻¹
- kon [3]: 140000 M⁻¹ s⁻¹
- koff [4]: 0.022 s⁻¹
- koff [5]: 0.0093 s⁻¹
- koff [6]: 0.017 s⁻¹
- kon [6]: 110000 M⁻¹ s⁻¹
- Kd [7]: 270 nM
- koff [7]: 0.012 s⁻¹
- kon [7]: 45000 M⁻¹ s⁻¹
- koff [8]: 0.029 s⁻¹
- kon [8]: 150000 M⁻¹ s⁻¹
- koff [9]: 0.0014 s⁻¹
- kon [9]: 80000 M⁻¹ s⁻¹
- koff [15]: 0.0014 s⁻¹
- Kd [13]: 270 nM
- Kd [16]: ~200 nM
- Complex Half Life [17]: 1.2 min
B2: TPP-1633 (antibody, human IgG1, kappa, V domains shown)
VH: B1 VH with S35Q, A58T, L59N, V93T, A102S, F105S
VL: B1 VL with Y53S
notes: also called 060E-M016-G14-hIgG1

- Complex Half Life [18]: 6.1 min
- Kd [2]: 13 nM
- koff [2]: 0.00088 s⁻¹
- kon [2]: 67000 M⁻¹ s⁻¹
- koff [3]: 0.0019 s⁻¹
- kon [3]: 90000 M⁻¹ s⁻¹
- koff [4]: 0.0019 s⁻¹
- koff [5]: 0.00088 s⁻¹
- koff [6]: 0.0011 s⁻¹
- kon [6]: 42000 M⁻¹ s⁻¹
- koff [8]: 0.002 s⁻¹
- kon [8]: 55000 M⁻¹ s⁻¹
- koff [9]: 0.0002 s⁻¹
- kon [9]: 37000 M⁻¹ s⁻¹
- koff [10]: 0.0072 s⁻¹
- koff [11]: 0.0072 s⁻¹
- kon [11]: 100000 M⁻¹ s⁻¹
- koff [12]: 0.0002 s⁻¹
B3: TPP-12942 (antibody, human IgG1, kappa, V domains shown)
VH: EVQLVQSGAEVKKPGASVKVSCKASGYKFSSYWIEWVKQAPGQGLEWIGEILPGSDTTNYNEKFKDRATFTSDTSINTAYMELSRLRSDDTAVYYCARDRGNYRAWFGYWGQGTLVTVSS
VL: DIQMTQSPSSLSASVGDRVTITCRASQDISNYLNWYQQKPGGAVKFLIYYTSRLHSGVPSRFSGSGSGTDYTLTISSLQPEDFATYFCQQGEALPWTFGGGTKVEIKR
notes: Prior art humanized IgG1 kappa antibody, used as comparator; also called huM25; huM25-hIgG1Kappa

Positions count from the first letter of the chain named. Each block holds one binder with its values, some of them ahead of it.
